{"source": "paper PMC4416786", "about": "“Validation of a P-Glycoprotein (P-gp) Humanized Mouse Model by Integrating Selective Absolute Quantification of Human MDR1, Mouse Mdr1a and Mdr1b Protein Expressions with In Vivo Functional Analysis for Blood-Brain Barrier Transport” (PLoS ONE, 2015)", "origin": "cited, not measured here", "tested_on": "P-gp", "design": "method as in PMID 19047468", "settings": "PET imaging; cited from earlier work", "data": [{"smiles": "[11CH3]Oc1ccc(-n2nnnc2C(F)(F)F)cc1CN[C@H]1CCCN[C@H]1c1ccccc1", "note": "[[11C]GR205171]", "values": [{"measurement": "Brain penetration in humans relative to rodents", "value": 8.6, "unit": "times"}]}]}
